Experiment [1] concerns the target human A2a receptor subtype (Homo sapiens, UniProt P29274). The experiment in a line: Adenosine 2a receptor subtype competition radioligand binding ([3H]CGS-21680, HEK293 membranes). As to conditions: Table 13; probably % activity @ 10 μM (footnote 8).
For experiment [2], the target named is human A3 receptor subtype (Homo sapiens, UniProt P0DMS8). The experiment in a line: Adenosine 3 receptor competition radioligand binding ([125I]AB-MECA, HEK293 membranes). The note with it: Table 13.

Protein sequences, listed by entry. Tags and fused reporters are not part of them.
UniProt P0DMS8, whole entry: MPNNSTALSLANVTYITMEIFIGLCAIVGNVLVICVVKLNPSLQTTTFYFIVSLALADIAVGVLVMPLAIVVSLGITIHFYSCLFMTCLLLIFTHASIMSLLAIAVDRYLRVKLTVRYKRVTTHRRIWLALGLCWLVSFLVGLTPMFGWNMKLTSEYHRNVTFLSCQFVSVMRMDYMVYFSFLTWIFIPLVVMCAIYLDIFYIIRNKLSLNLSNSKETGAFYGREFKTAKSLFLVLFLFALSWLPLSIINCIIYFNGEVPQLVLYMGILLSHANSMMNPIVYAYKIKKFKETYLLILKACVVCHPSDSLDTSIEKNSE

On to `Cc1[nH]c2nc(-c3ccccc3)nc(NCCNC(=O)C3(N)CC3)c2c1C`, for which the “A2a, value printed as %” value in experiment [1] is reported as 65%.

As to `O[C@H]1CC[C@H](Nc2nc(-c3ccncc3)nc3[nH]ccc23)CC1`, the “A3 % activity @ 10 μM” value in experiment [2] amounted to 54%^8.

(Values after US6673802B2, “Compounds specific to adenosine A3 receptor and uses thereof” (OSI Pharmaceuticals, Inc., priority 2000, dated 2004).)
